BindingDB's records for doi:10.7270/Q24B305P (D3R/Abbott, 2015)

target: Urokinase-type plasminogen activator [179-424,C299A,N323Q] (Human, UniProt P00749, C299A/N323Q); assay: Photometric_Method1

Question: Which Ki does the source give for `N=C(N)c1ccc2cc(C(=O)Nc3ccccc3)ccc2c1` [uPa_7] here?
Answer: The Ki was 628 nM.

Question: How did the Ki turn out when `COc1ccc2ccc(C(=N)N)cc2c1-c1cnn(S(C)(=O)=O)c1` [uPa_13] was run?
Answer: The Ki was 630 nM.

Question: How did the Ki turn out when `COC(=O)Nc1cccc2ccc(C(=N)N)cc12` [uPa_10] was run?
Answer: Its Ki is 40 nM.

Question: With `COc1ccc2ccc(C(=N)N)cc2c1OCC(N)=O` [uPa_4] as the compound, how does the Ki read?
Answer: Its Ki is 637 nM.
